From ChEMBL document CHEMBL3763146 (J Med Chem, 2016) come the findings set out here.

One data set relates to Rhesus monkey. As to the kind of experiment: Dose normalized fAUC in rhesus monkey at 2 mg/kg, po. The data set is classed as ADME, organism-based, Macaca mulatta. The settings on record: in vivo.
A further data set relates to Rattus norvegicus. As to the kind of experiment: Dose normalized fAUC in rat at 2 mg/kg, po. The data set is classed as ADME, organism-based. The settings on record: in vivo.
The test system of data set [1] is Beta-3 adrenergic receptor (Canis lupus familiaris). As to the kind of experiment: Agonist activity at dog beta3 adrenergic receptor expressed in CHO cells assessed as accumulation of cAMP after 30 mins by TR-FRET assay relative to (R)-(-)-isoproterenol. The settings on record: 0.5 h, read-out: max activation.
For a further data set, the system named is Canis familiaris. Kind of data set: Dose normalized fAUC in dog at 2 mg/kg, po. The class given is ADME, organism-based, Canis lupus familiaris. The settings on record: in vivo.

For `O=S(=O)(Nc1ccc(CCNC[C@H](O)c2cccnc2)cc1)c1ccc(-c2nc(-c3ccc(C(F)(F)F)cc3)cs2)cc1`, the fAUC/dose result with Rhesus monkey was “<= 1 nM.hr/mg/kg”; in the data set with Rattus norvegicus, “<= 1 nM.hr/mg/kg”; in the data set with Canis familiaris, “<= 6 nM.hr/mg/kg”. For the same compound, the Emax in data set [1] amounted to 80%.
For the compound `C[C@@H](C(=O)Nc1ccc(C[C@@H]2CC[C@H]([C@H](O)c3ccccc3)N2)cc1)n1ncccc1=O`, in data set [1], the Emax worked out at 86%.
